High-throughput results: PubChem, ICCB-Longwood Screening Facility, Harvard Medical School
GIV Gai3 FP: blocks GIV peptide binding to rat Galpha-i3. P08753. Galpha-i3/FITC-GIV peptide fluorescence polarization, 90 min; hits give low values; scaled: aluminum fluoride 0%, vehicle 100%. percent of control (FP), % (concentration not given with the values). actives 0.42% (n = 210,000). AID 1224905;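 active = replicate mean at 85% of control or lower, very high polarization wells dropped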;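 also: wells of about 15 µL received 100 nL stock; the first replicate is given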
HCMV UL50-53 inh: cytomegalovirus nuclear egress complex inhibition | HTRF UL50-UL53 interaction, normalized percent inhibition | 190,000 tested, 0.15% active | inhibition, % (concentration not given with the values); in the data active means inhibition above about 27%, passing the limit was not always enough
GIV-Gai FP conf: confirmation of inhibitors of GIV binding to rat Galpha-i3 | shares compounds with GIV Gai3 FP | FITC-GIV peptide binding to Galphai3, fluorescence polarization; hits give low values | fluorescence polarization, mP at 100 µM | 580 tested, 38% active | AID 1259350;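 active means inhibition score of 15 or more, meaning 100 minus mean polarization as percent of control over three replicates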;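 further: lower mP means peptide displaced from Galphai3 so more inhibition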
GIV-Gai AS conf: GIV-Galpha-i3 inhibition, AlphaScreen confirmation; shares compounds with GIV Gai3 FP; 580 tested, 39% active; AlphaScreen counts at 100 µM; AlphaScreen Galphai3-GIV binding, purified proteins, 90 min; hits give low values;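 active means inhibition score at or above a set limit, where the score is 100 minus the three-replicate mean percent of control signal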
An asterisk follows results filed as active; . = no result given. Shown are actives, neighbours in structure and some others; about 0.46% of the full set was active somewhere.

SMILES	GIV Gai3 FP	HCMV UL50-53 inh	GIV-Gai FP conf	GIV-Gai AS conf
COc1ccc(C2CC(=O)C3=C(C2)NC(C)=C(C(=O)OCc2ccccc2)C3c2ccc3c(c2)OCO3)cc1 (stereo not drawn)	104	-6	.	.
Cc1cc2nc(CN3CCCc4ccccc43)cc(=O)n2o1	75*	-60	.	.
Cc1cc2nc(COc3ccccc3)cc(=O)n2o1	99	-5	.	.
O=C(NC1CCCC1)C1CCN(c2ccc(-c3ccccc3)nn2)CC1	105	-25	.	.
O=C(NC1CCN(Cc2ccccc2)CC1)C1CCN(c2ccc(-c3ccccc3)nn2)CC1	106	29*	.	.
N#CC1=C(NC(=O)c2ccc(Cl)c(Cl)c2)CCC1	104	-43	.	.
O=S(=O)(NCCc1n[nH]c(Cc2ccc(F)cc2)n1)c1ccc(Cl)cc1	104	.	.	.
Cn1c(=O)c(-c2ccccc2)c2c3c(cccc31)C(=O)c1ccccc1-2	110	.	.	.
Cn1c(=O)c(C(=O)CS(=O)(=O)O)c2c3c(cccc31)C(=O)c1ccccc1-2	55*	.	22*	7785*
COC(=O)c1ccccc1NC(=O)CSc1nnc(-c2cc3cccc(OC)c3o2)n1C	106	8	.	.
O=c1cc(O)c2sc3nc(-c4ccco4)cc(C(F)(F)F)c3c2[nH]1	72*	-64	60*	5742*
Cc1cc(C(F)(F)F)c2c(n1)sc1c(O)cc(=O)[nH]c12	109	.	.	.
COc1ccc(C2=N/C(=C\c3cc(OC)c(OC)c(OC)c3)C(=O)O2)c(Br)c1	128	.	.	.
Cc1nc(CNC(=O)[C@H]2CSCN2S(=O)(=O)c2cccc(Cl)c2)cs1	100	.	.	.
COc1ccc2c(c1)N(C)/C(=c1/s/c(=C3/C(=O)N(c4ccccc4)N=C3C)n(C)c1=O)S2	73*	-34	75	34539

Next part, starting with the last four of the part before.
SMILES	GIV Gai3 FP	HCMV UL50-53 inh	GIV-Gai FP conf	GIV-Gai AS conf
Cc1cc(C(F)(F)F)c2c(n1)sc1c(O)cc(=O)[nH]c12	109	.	.	.
COc1ccc(C2=N/C(=C\c3cc(OC)c(OC)c(OC)c3)C(=O)O2)c(Br)c1	128	.	.	.
Cc1nc(CNC(=O)[C@H]2CSCN2S(=O)(=O)c2cccc(Cl)c2)cs1	100	.	.	.
COc1ccc2c(c1)N(C)/C(=c1/s/c(=C3/C(=O)N(c4ccccc4)N=C3C)n(C)c1=O)S2	73*	-34	75	34539
COc1ccc2c(c1)N(C)/C(=c1/s/c(=C3/C(=O)N(C)C(=S)N3C)n(Cc3ccccc3)c1=O)S2	111	.	.	.
CCOc1ccc(NS(=O)(=O)c2cc(-c3nc(C)c(C)s3)sc2C)cc1	99	.	.	.
Cc1ccc(N2CCN(C(=O)c3cc4ccccn4n3)CC2)c(C)c1	102	-31	.	.
Cc1cccc(-c2nn3c(=O)cc(N4CCN(C(=O)Nc5ccc6c(c5)OCO6)CC4)nc3s2)c1	102	24	.	.
Cc1cccc(NC(=O)N2CCN(c3cc(=O)n4nc(-c5cccc(C)c5)sc4n3)CC2)c1	87	19	81	25822
Cc1ccccc1-c1nn2c(=O)cc(N3CCN(C(=O)Nc4ccccc4)CC3)nc2s1	97	-11	.	.
Cc1ccccc1-c1nn2c(=O)cc(N3CCN(C(=O)Nc4cccc(F)c4)CC3)nc2s1	88	-13	81	28810
N#Cc1c(-c2ccccc2)oc2c1C(=O)c1ccccc1C2=O	99	.	.	.
CCN1C(C)=C(C)S/C1=C1\SC(=S)N(NC(C)=O)C1=O	106	.	.	.
CCN1C(C)=C(C)S/C1=C1\SC(=S)N(C2CCCCC2)C1=O	94	-24	73	44037
O=C(CC1SC(=O)NC1=O)Nc1cccc(NC(=O)CC2SC(=O)NC2=O)c1 (stereo not drawn)	76*	-31	62*	9767*
O=C(CC1SC(=O)NC1=O)Nc1ccc(O)cc1 (stereo not drawn)	103	-14	.	.
N=C1/C(=C2/Nc3ccccc3S2)CC(=O)N1c1ccc(F)cc1F	112	-23	.	.
O=C1/C(=C/c2cn(-c3ccccc3)nc2-c2cccs2)SC(=S)N1C1CCS(=O)(=O)C1 (stereo not drawn)	94	-18	.	.
O=C1/C(=C\c2cccnc2)SC(=S)N1C1CCS(=O)(=O)C1 (stereo not drawn)	89	-32	73	36761
S=C(NCCc1ccccc1)N1CCC2(CC1)OCCO2	99	0	.	.
Cc1ccc(C2C=C(c3ccccc3)Nc3nc(NS(=O)(=O)c4ccc(C)cc4)nn32)cc1 (stereo not drawn)	100	.	.	.
CS(=O)(=O)Nc1nc2n(n1)C(c1ccccc1)C=C(c1ccccc1)N2 (stereo not drawn)	53*	.	44*	28094
Cc1ccc(NC(=O)Nc2nnc(CC(=O)NCc3ccccc3)s2)cc1C	102	.	.	.
CCOC(=O)c1c(C)oc2ccc(N(C(=O)c3ccccc3)S(=O)(=O)c3ccc(C)cc3)cc12	105	.	.	.
Cn1c(C(=O)NCc2ccccc2F)cc2cc(S(=O)(=O)N3CCCCC3)ccc21	89	.	79	33586
CCOc1ccccc1CNC(=O)c1cc2cc(S(=O)(=O)N3CCCCC3)ccc2n1C	98	.	.	.
O=C(Cn1c(=O)c2ccccc2n2c(=S)sc(-c3ccc(Br)cc3)c12)N1CCCC1	94	-19	.	.
CCN(CC)C(=O)Cn1c(=O)c2ccccc2n2c(=S)sc(-c3ccccc3F)c12	121	-41	.	.
